Results from patent US20010056060A1, “Treatment of osteoporsis with EP2/EP4 receptor selective agonists” (priority 2000, published 2001).

Chains of the proteins cited; added tags and fusions are not shown. Lines headed by an entry give the natural chain unless they say otherwise; changes in a name come on top.
UniProt P43116: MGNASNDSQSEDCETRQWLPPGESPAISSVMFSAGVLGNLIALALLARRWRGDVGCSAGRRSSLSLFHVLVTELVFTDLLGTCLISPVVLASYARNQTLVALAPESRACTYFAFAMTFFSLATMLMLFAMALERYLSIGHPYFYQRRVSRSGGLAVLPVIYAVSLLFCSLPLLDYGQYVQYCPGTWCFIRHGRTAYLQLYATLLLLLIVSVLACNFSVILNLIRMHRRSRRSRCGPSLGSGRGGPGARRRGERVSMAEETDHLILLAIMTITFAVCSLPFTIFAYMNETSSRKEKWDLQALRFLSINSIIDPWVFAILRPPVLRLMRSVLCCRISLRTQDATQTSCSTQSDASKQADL

Target: EP2 receptor (Homo sapiens, UniProt P43116)
Test: Scatchard analysis of [3H]PGE2 binding in 293-S/EP2 line
Set-up: cDNAs representing the complete open reading frames of the human EP2 and EP4 receptors; expressed in transfected cells
Conditions: read-out: Kd for PGE2 (EP2); 293-S line stably overexpressing human EP2, approximately 338,400 receptors per cell

Kd: 12 nM
SMILES: CCCCC[C@H](O)/C=C/[C@H]1[C@H](O)CC(=O)[C@@H]1C/C=C\CCCC(=O)O [PGE2, Prostaglandin E2]
